# Results: PMC8914261, “Discovery and Characterization of the Naturally Occurring Inhibitors Against Human Pancreatic Lipase in Ampelopsis grossedentata” (Frontiers in Nutrition, 2022)
# Target: T1, human pancreatic lipase (hPL) (Homo sapiens, UniProt P16233)
# T1 construct: made in house
# T1 sequence (P16233 17-465): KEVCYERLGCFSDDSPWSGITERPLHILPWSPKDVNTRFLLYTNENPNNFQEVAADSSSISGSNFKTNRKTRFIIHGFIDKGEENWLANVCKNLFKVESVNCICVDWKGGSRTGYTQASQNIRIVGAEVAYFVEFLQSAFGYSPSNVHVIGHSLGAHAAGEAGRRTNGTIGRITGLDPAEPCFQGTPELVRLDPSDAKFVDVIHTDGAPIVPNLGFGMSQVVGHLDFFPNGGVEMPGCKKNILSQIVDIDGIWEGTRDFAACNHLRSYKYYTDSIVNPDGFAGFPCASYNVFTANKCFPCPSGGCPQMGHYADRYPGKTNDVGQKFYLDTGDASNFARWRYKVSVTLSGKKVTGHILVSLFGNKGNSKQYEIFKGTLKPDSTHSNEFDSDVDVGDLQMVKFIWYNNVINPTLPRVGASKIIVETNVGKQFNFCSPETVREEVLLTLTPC
# Assay: hPL inhibition assay (hPL-catalyzed DDAO-ol hydrolysis, fluorescence)
# Assay type: biochemical
# Conditions: DDAO-ol 20 μM as substrate, 3 min pre-incubation at 37°C
substance,measurement,value
Myricitrin,IC50,> 100 µM
